Legend:
[1] = molecular target: APE1 (Homo sapiens, UniProt P27695); experiment: APE1 fluorescent oligonucleotide activity assay (abasic site substrate); assay type: biochemical
[2] = molecular target: EN (Homo sapiens, UniProt O00370, N5T); experiment: Plasmid nicking EN activity assay; assay type: biochemical; conditions: qualitative, agarose gel

Chains of the proteins cited; added tags and fusions are not shown. Residues count along the entry.
UniProt P27695, whole entry: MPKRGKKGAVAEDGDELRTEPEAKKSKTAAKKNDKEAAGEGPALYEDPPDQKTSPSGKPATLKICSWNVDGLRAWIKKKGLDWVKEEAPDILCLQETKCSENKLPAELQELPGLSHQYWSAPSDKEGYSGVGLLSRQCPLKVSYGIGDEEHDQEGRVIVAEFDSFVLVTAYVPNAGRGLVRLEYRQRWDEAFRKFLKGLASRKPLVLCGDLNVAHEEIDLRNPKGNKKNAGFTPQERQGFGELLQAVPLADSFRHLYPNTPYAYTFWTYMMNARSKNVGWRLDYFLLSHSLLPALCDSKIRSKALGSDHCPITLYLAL
UniProt O00370, 1-239 N5T limits assumed: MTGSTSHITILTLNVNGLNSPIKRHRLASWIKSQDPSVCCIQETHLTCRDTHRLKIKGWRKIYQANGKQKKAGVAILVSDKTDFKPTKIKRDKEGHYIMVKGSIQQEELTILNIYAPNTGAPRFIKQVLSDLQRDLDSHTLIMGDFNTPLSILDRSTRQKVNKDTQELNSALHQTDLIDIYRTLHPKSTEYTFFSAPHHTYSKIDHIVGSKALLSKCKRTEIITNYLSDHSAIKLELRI

`CCn1c2ccccc2c2cc(/C=N\Nc3cc(C)nc4cc5c(cc34)OCO5)ccc21` was tested, and the “Percent APE1 activity, average” value ([1]; 25 µM, Supplementary Fig. 6b, n=3) was 0.1324%, the “APE1 percent activity, Replicate 1” value ([1]; compound at 25 μM, Replicate 1) was 0.7562% and the “APE1 percent activity, Replicate 2” value ([1]; compound at 25 μM, Replicate 2) was 0.5127%. For the same compound, the “APE1 percent activity, Replicate 3” value ([1]; compound at 25 μM, Replicate 3) was 0.1324%, the “APE1 percent activity, average” value ([1]; compound at 25 μM, average of 3 replicates) was 0.4671% and the “APE1 activity (%)” value ([1]; inhibitors at 25 μM, relative to 0 μM inhibitor control, mean ± s.d., 3 independent experiments) was 0.5 ± 0.3%. For the same compound, the “Inhibition of EN activity in plasmid nicking assay” value [2] was “did not inhibit EN activity”.

From article PMC11078990, “Identification and characterization of small molecule inhibitors of the LINE-1 retrotransposon endonuclease” (Nature Communications, 2024)
